According to patent US20260382580A1, “USE OF NAPHTHYLUREA COMPOUNDS IN PREPARATION OF DRUGS FOR TREATING PTERYGIUM” (published 2026):

Test system: pterygium
Assay: NIH3T3 cell-induced rabbit pterygium model, pterygium area by slit lamp on Day 13
Details: Day 13, eye drops three times a day
Method: In this experiment, a pterygium model was induced in New Zealand white rabbits by NIH3T3 cells, and the compounds in the present disclosure were administered topically by eye drops, 3 times per day, and on day 13, the size of the pterygium was assessed by photographing the anterior segment of the animal's eye with a slit lamp. The inhibitory effect of the compounds of the present disclosure was explored on rabbit pterygium.
18 male New Zealand white rabbits were randomly divided into three groups according to their body weight: 6 rabbits in each group were injected with NIH3T3 cells and matrix membrane through bulbar conjunctiva.
The animals in each group, as well as the replacement animals, were modeled.
NIH3T3 cell revival: Immediately after receiving the cells, the cells were stored in a liquid nitrogen tank until revival; DMEM+10% neonatal fetal bovine serum would expire after three months from preparation.
NIH3T3 cell culture: The revived cells were cultured in 5% CO2, 37 °C cell culture incubator, and the culture medium was changed twice a week, and cell passaging was performed when the cell density reached 70% to 75%. […]
Examination items: On Day 13 after modeling, the anterior segment of the animal's eye was photographed with a slit lamp, and the size of pterygium was evaluated and the area was measured.

Structure (SMILES)	change in pterygium area compared to the vehicle control group
Cc1cccc(NC(=O)Nc2ccc(-c3cncc4[nH]nc(N)c34)c3ccccc23)c1	decrease in pterygium area compared to the vehicle control group
Cc1ccc(F)c(NC(=O)Nc2ccc(-c3ccc(OCCCN4CCCC4)c4[nH]nc(N)c34)c3ccccc23)c1	decrease in pterygium area compared to the vehicle control group
